Values quoted from earlier work in patent US5593994A, “Prostaglandin synthase inhibitors” (The DuPont Merck Pharmaceutical Company, priority 1994, dated 1997).

What was measured:
[1] = test system: both isoenzymes (prostaglandin G/H synthase, Cox 1 and Cox 2); details: cited from earlier work
Cox-2 = details: cited from earlier work

Which mode of inhibition [1] does the source give for `CS(=O)(=O)c1ccc(-c2cc(Br)sc2-c2ccc(F)cc2)cc1` [DuP 697] here?
Its mode of inhibition is “competitive toward both isoenzymes”.

And the time-dependence of inhibition (Cox-2; Cox-2, longer exposure)?
Its time-dependence of inhibition is “selective time-dependence against Cox-2”.

What about the “tightness / reversibility of binding inhibition” value (Cox-2; reversed only following enzyme denaturation and organic extraction) of the same compound?
Its value is “extremely tight binding inhibition”.
